ChEMBL document CHEMBL3822371, “Rapid Discovery and Structure-Activity Relationships of Pyrazolopyrimidines That Potently Suppress Breast Cancer Cell Growth via SRC Kinase Inhibition with Exceptional Selectivity over ABL Kinase” (J Med Chem, 2016)

Key:
[1] = system: Plasma; assay: Fraction unbound in rat plasma after 24 hrs by LC-MS/MS analysis; assay type: ADME, cell-free
[2] = Fraction unbound in human plasma after 24 hrs by LC-MS/MS analysis; assay type: ADME, cell-free

SMILES: COc1cc(-c2nn(CCN3CCC(N(C)C)CC3)c3ncnc(N)c23)ccc1NC(=O)OC(C)(C)C
- Fu [1]: 9.4%
- Fu [2]: 19.1%
